Assay results published in US20230124013A1, “USE OF CONJUGATES COMPRISING TUMOUR-SELECTIVE LIGANDS AND GROUPS CAPABLE OF RELEASING CARBON MONOXIDE (CO), FOR EXERTING IMMUNOMODULATORY EFFECTS IN CANCER TREATMENT” (Instituto de Medicina Molecular João Lobo Antunes, priority 2020, published 2023).
“Also recorded” adds a separate entry of the source.

Experiments:
[1] = tested on: bone marrow-derived macrophages; assay: BMDM macrophage polarisation (M1, M2a, M2c); assay type: cell-based, C57BL/c mice; details: BMDM polarised 24 h
[2] = tested on: bone marrow-derived macrophages; assay: Bone marrow-derived macrophage (BMDM) differentiation culture; assay type: cell-based, C57BL/c mice
[3] = tested on: MC38 cells; assay: MC38 colon carcinoma model in C57BL/c mice; assay type: in vivo
[4] = Carboxyhaemoglobin (CO-Hb) levels in circulation after i.v. injection; assay type: in vivo, mice; details: intravenous administration; 30 minutes after i.v. injection
[5] = CO biodistribution in mice (CO level determination in tissues); assay type: in vivo
[6] = target: tumour-associated macrophages and monocytes; assay: Flow cytometry of the myeloid compartment in CT26 tumours; assay type: in vivo, BALB/c mice
[7] = tested on: BM cells; assay: Cytotoxicity when added at the same time as BM cells; assay type: cell-based, C57BL/c mice; details: 5 or 10 μM
[8] = tested on: CT26 tumours; assay: CT26 tumours in immunocompromised NSG mice; assay type: in vivo; details: daily treatment, vs rHSA-DMSO
[9] = Toxicology and histology scores in tissues of treated mice; assay type: in vivo
[10] = tested on: CT26 cells; assay: Live-imaging of CO release with COP-1 in CT26 cells; assay type: cell-based, mouse; details: CT26 cells incubated 30 minutes with conjugate; imaged up to 60 minutes after COP-1
[11] = tested on: PD-1; assay: Flow cytometry of tumour-infiltrating T cells: PD-1 expression; assay type: in vivo, BALB/c mice; details: CT26, BALB/c
[12] = tested on: tumour-infiltrating lymphocytes; assay: Flow cytometry of tumour-infiltrating lymphocytes and TNF-α/IFNγ-producing cells; assay type: in vivo, BALB/c mice; details: CT26 tumours, BALB/c
[13] = tested on: CT26 tumours; assay: CD4 and CD8 T cell depletion in CT26 tumour-bearing BALB/c mice; assay type: in vivo; details: depleting antibodies
[14] = tested on: CT26 tumours; assay: CT26 colon carcinoma tumour growth and survival in BALB/c mice; assay type: in vivo; details: vs rHSA-DMSO
[15] = tested on: CT26 cells
[16] = tested on: differentiated BMDMs; assay: Cytotoxicity assay of differentiated BMDMs; assay type: cell-based, C57BL/c mice; details: read-out: G150
[17] = tested on: CTLA-4; assay: Flow cytometry of tumour-infiltrating T cells: CTLA-4 expression; assay type: in vivo, BALB/c mice; details: CT26, BALB/c
[18] = tested on: IL-20; assay: Protein quantification of cytokines and chemokines in tumours; assay type: in vivo, mice; details: after treatments; vs rHSA-DMSO, n=3

With “rHSA-CORM: artificial albumin metalloprotein: recombinant human serum albumin (Recombumin) metalated with CORM-3, carrying Ru(CO)2 groups” the “expression of M1, M2a and M2c lineage markers” value [1] was “reducing the expression”, the “macrophage proliferation (Ki-67)” value ([2]; BMDM in vitro, day 2 and 6 of differentiation) was “No differences” and the “number of cells after macrophage differentiation” value ([2]; BMDM in vitro, day 6) was “reduction of the number of cells”. For the same substance, the monocyte-to-macrophage differentiation ([2]; conjugate added 24 h after seeding, 1 μM) was “no differences”, the “anti-tumour effectiveness (tumour weight)” value [3] was “equally effective” and the “formation of CO-Hb species in blood” value [4] was “did not observe any increase”. For the same substance, the “CO delivery to tumours” value [5] was “specifically delivering significant amounts of CO to tumours”, the “Ki-67 expression in tumour macrophages” value ([6]; in vivo) was “reduced” and the “abundance of neutrophils in tumours” value ([6]; vs rHSA-DMSO) was “increased the abundance”. The “abundance of TAMs in tumours” value ([6]; vs rHSA-DMSO, n=4) was “reduce the abundance”, the “abundance of monocytes in tumours” value ([6]; vs rHSA-DMSO, n=4) was “reduce the abundance” and the “cell death in cultures” value [7] was “near-complete cell death”. The survival [8] was “no significant difference”, the tumour size [8] was “no significant difference” and the “metastasis: tumour cells in organs (histology scores)” value ([9]; tumour-bearing treated mice) was “no tumour cells were detected in the organs”. For the same substance, the “signs of toxicity in tissues” value ([9]; vs rHSA-DMSO treated mice) was “nor have we detected any given signs of toxicity”, the “CO accumulation in tumour cells (COP-1 live imaging)” value [10] was “accumulate in tumour cells over time” and the “expression of PD-1 in T cells” value [11] was “reduced”. The “TNF-α- and IFNγ-producing CD8 and NK cells” value [12] was “increase”, the tumour-infiltrating lymphocyte abundance [12] was “not having differences” and the “anti-tumour effect after CD4 T cell depletion” value [13] was “CD4 T cells were redundant”. For the same substance, the “anti-tumour effect after CD8 T cell depletion” value [13] was “depletion of CD8 T cells reversed the effects”, the CT26 tumour growth ([14]; BALB/c, daily i.t. 30 mg kg^−1) was “slowed” and the “inguinal lymph node (iLN) size neighbouring tumours” value ([14]; CT26, BALB/c, daily i.t. 30 mg kg^−1, day 13) was “some swelling; also recorded: larger”. The survival ([14]; CT26, BALB/c, daily i.t. 30 mg kg^−1, p=0.0034) was “significantly improved”, the “tumour size at day 13” value ([14]; CT26, BALB/c) was “considerably smaller” and the “cell viability (direct cytotoxicity)” value [15] was “no significant difference”. The IC50 [16] was 80 µM, the “expression of CTLA-4 in T cells” value [17] was “reduced” and the “level of IL-20 in tumours” value [18] was “dramatic reduction; also recorded: completely abrogated”.
